Ab-14 light chain CDR variants: yeast mating affinities

Reference: Engelhart et al. 2022, doi:10.1038/s41597-022-01779-4. File: FLAb, binding data.

Binding partner: SARS-CoV-2 spike HR2 peptide, sequence PDVDLGDISGINAS.

The variants keep the heavy chain, the linker and the frameworks of Ab-14 (scFv order VH, a (GGGGS)3 linker, VL).
VH: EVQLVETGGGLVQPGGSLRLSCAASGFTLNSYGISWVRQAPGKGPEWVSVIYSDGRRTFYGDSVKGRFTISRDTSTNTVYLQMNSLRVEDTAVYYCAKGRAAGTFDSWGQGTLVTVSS
VL: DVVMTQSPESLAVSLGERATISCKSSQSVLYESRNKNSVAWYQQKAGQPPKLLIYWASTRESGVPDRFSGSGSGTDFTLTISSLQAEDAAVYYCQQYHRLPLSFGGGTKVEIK

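Phage display of a naive human antibody library on the peptide gave the parent. Variants in AAYL50 differ from the parent at up to three CDR positions; double and triple changes were sampled at random. AlphaSeq pools MATa yeast showing the antibodies with MATalpha yeast showing the peptide. The frequency of each diploid, read from paired DNA barcodes, reflects how well the two displayed proteins bind. Scores were corrected for input abundance and mapped to Kd with protein pairs of known affinity run in the same pool. Mating was done three times.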

The parent's light chain CDRs are KSSQSVLYESRNKNSVA, WASTRES, QQYHRLPLS; each variant's own CDRs replace them letter for letter.
All variants listed here change S25 of the VL, counted from its first residue.
Numbers give log10(Kd / nM), so 0 is 1 nM and 3 is 1 µM. Smaller is tighter.
Replicates are averaged; those with no signal do not enter the mean.
"nd" means that the variant was in the library but no mating with the target was seen in that replicate; the authors take this as a sign of poor binding, and no number exists.
Order: sorted from the lowest average up, undetected variants last.

* KNSQSVLYESRNKNSVA | HASTRES | QQYHRLPLD = -0.34, -0.08, -0.31 (mean -0.25)
* KMSQSELYESRNKNSVA | WASTRES | QQYHRLPLS = -0.26, 0.16, -0.18 (mean -0.09)
* KCSQSVCYESRNKNSVA | WASTRES | QQYQRLPLS = 0.06, 0.40, 0.18 (mean 0.21)
* KMSQSVLYESRNKNSVA | WAGTRES | QQYHSLPLS = 0.27, 0.70, 0.53 (mean 0.50)
* KLSQSVLYESRNKNSVA | WASTVRS | QQYHRLPLS = 0.32, 0.61, 0.61 (mean 0.51)
* KMSQSVLYESRNVNSVA | WASTRES | QQYHELPLS = 0.70, 1.05, 0.83 (mean 0.86)
* KWSQSVLYESRNKNSVA | WASTRES | QQYTRLPLS = 1.04, 1.03, 0.66 (mean 0.91)
* KWSQSVLTESRNKNSVA | WASTREF | QQYHRLPLS = 0.85, 1.09, 0.95 (mean 0.96)
* KDSQSVGYESRNKNNVA | WASTRES | QQYHRLPLS = 0.90, 1.05, 0.97 (mean 0.97)
* KTSQSVLYESRNKNSVA | WASTRES | QQYHRLPLS = 1.06, 1.07, 1.00 (mean 1.04)
* KLSQSVLYESRNKTSVA | WASTRES | QHYHRLPLS = 1.21, 1.35, 1.17 (mean 1.24)
* KHSQLVLYESRNKNSVA | WASTRES | QQYHRLPLS = 1.14, 1.28, 1.43 (mean 1.28)
* KYSQSVLYESVNKNSVA | WASTRES | QQYHRLPLS = 1.25, 1.32, 1.28 (mean 1.28)
* KMSQSVLYESRNKNPVA | WASTRES | QAYHRLPLS = 1.19, 1.41, 1.31 (mean 1.30)
* KFSQSVLDESRNKNSVA | WASTRES | QQYHRLPLS = 1.19, 1.41, 1.35 (mean 1.32)
* KCSQSVLYESRNKYDVA | WASTRES | QQYHRLPLS = 1.29, 1.48, 1.55 (mean 1.44)
* KASQSVMYESRNKNSVA | WASTRES | QQYRRLPLS = 1.47, 1.71, 1.76 (mean 1.64)
* KGSQSHLYESRSKNSVA | WASTRES | QQYHRLPLS = 1.99, 1.79, 1.77 (mean 1.85)
* KHNQSVLYESRNKNSVA | WASTREC | QQYHRLPLS = 2.49, 1.91, 2.76 (mean 2.38)
* KQSQSVLYESRNKNSVA | WASTREC | KQYHRLPLS = 2.05, 2.07, 3.15 (mean 2.42)
* KFSQSVLYESFNKNSVA | WASTRRS | QQYHRLPLS = 2.98, 2.50, 2.76 (mean 2.75)
* KKSQSVLYEMRNKNSVA | WASVRES | QQYHRLPLS = nd, 2.92, nd
* KLSQSVLYESRNKNSVS | WASTRES | QQFHRLPLS = 2.07, 4.08, 2.97 (mean 3.04)
* KRSQSVLYESRNKNSVA | WASTREN | QQYHRLPLS = 3.31, 2.76, 3.08 (mean 3.05)
* KDVQSVLYESRNKNSVA | WASTRES | QQYHRHPLS = nd, 3.14, nd
* KMSQSVLYESSNKNSAA | WASTRES | QQYHRLPLS = nd, nd, 3.19
* KDSQSVLYESRNKNWVA | WASTRES | QQYTRLPLS = 3.40, nd, 3.53 (mean 3.46)
* KVSQSVLYESRNKNSVA | WASTREW | QQYHRLPPS = 3.63, nd, nd
* KESQSVLYESRNKNSVA | WASTRES | QYYHQLPLS = 3.29, 4.12, nd (mean 3.71)
* KQSQSVLYESRNKNSVA | WLSTRTS | QQYHRLPLS = 3.89, 3.57, 4.07 (mean 3.84)
* KLSQSVLYESRNKNSGA | WASTRES | QQYHALPLS = 4.38, 3.60, nd (mean 3.99)
* KDSQSVLYESRNKNSVA | WASYRES | QQYHFLPLS = 5.29, 3.38, 3.60 (mean 4.09)
* KRSQSVLYESRNKNSVA | WASTRVS | QMYHRLPLS = 5.63, 3.54, 3.67 (mean 4.28)
* KKSQSVLYESRNKNSVA | WASTRES | FQYPRLPLS = 5.01, 4.29, nd (mean 4.65)
* KDSQSCLYESRNKNSVA | WASTHES | QQYHRLPLS = 5.20, nd, 4.24 (mean 4.72)
* KQHQSVLYESRNKNSFA | WASTRES | QQYHRLPLS = 4.87, 5.16, 4.80 (mean 4.95)
* PLSQSVLYESRNKNSVA | WASTRES | SQYHRLPLS = nd, nd, 5.99
* KDSQSVLYESRNKNSVF | WAPTRES | QQYHRLPLS = nd, nd, nd
* KDSCSVLYESRNKNSVA | WASTRES | QTYHRLPLS = nd, nd, nd
* KESQSVLYESRNKNSVA | PASLRES | QQYHRLPLS = nd, nd, nd
* KQSQSVLYESRNKNSVA | WASTNES | QQYHRLPLS = nd, nd, nd
* KESQSVLYESRNKNSVA | WASTRES | QPYHRLPLS = nd, nd, nd
* KGSQSVLYESRNKNSVA | WASTQES | QQYHRLPLS = nd, nd, nd

Empty control strains, which show no peptide, gave a signal in 18% of pairings with library AAYL50; the median was 4.19 and 95% of these signals were weaker than 2.99. No background was subtracted.
In this assay the parent's reference entry averaged 0.65; its copy inside this library read 1.68.